The record followed here is ChEMBL document CHEMBL1926507, “Discovery of a new class of bicyclic substituted hydroxyphenylmethanones as 17β-hydroxysteroid dehydrogenase type 2 (17β-HSD2) inhibitors for the treatment of osteoporosis” (Eur J Med Chem, 2012).

The target in experiment [1] is T1, 17-beta-hydroxysteroid dehydrogenase type 2 (Homo sapiens) (UniProt P37059).
T1 sequence (whole entry): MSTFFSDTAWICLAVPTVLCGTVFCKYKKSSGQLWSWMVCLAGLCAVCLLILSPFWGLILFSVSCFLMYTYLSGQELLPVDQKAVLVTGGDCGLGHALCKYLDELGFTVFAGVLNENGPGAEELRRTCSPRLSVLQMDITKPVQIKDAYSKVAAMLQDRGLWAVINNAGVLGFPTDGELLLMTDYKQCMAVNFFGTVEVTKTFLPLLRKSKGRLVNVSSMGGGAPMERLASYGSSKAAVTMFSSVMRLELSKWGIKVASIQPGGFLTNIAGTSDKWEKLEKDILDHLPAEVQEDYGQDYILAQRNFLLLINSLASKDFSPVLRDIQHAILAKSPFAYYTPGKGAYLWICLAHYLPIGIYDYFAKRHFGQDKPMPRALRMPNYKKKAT
The experiment can be described thus: Inhibition of human microsomal 17beta-HSD2 using [2,4,6,7-3H]E2 as substrate at 1 uM after 20 mins by radioflow detector. The gist of the method:
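Microsomal fraction from human placenta incubated at 37 °C for 20 min with NAD+ (1500 µM), inhibitor and unlabeled plus [2,4,6,7-3H]-E2 (final 500 nM). Phosphate buffer 50 mM with 20% glycerol and 1 mM EDTA. Inhibitor stocks made in DMSO. Reaction stopped with HgCl2 and extracted with ether. E2 and E1 separated by HPLC with radioflow detection. Values are the mean of three determinations.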

The target of experiment [2] is T2, 17-beta-hydroxysteroid dehydrogenase type 1 (Homo sapiens) (UniProt P14061).
T2 sequence (whole entry): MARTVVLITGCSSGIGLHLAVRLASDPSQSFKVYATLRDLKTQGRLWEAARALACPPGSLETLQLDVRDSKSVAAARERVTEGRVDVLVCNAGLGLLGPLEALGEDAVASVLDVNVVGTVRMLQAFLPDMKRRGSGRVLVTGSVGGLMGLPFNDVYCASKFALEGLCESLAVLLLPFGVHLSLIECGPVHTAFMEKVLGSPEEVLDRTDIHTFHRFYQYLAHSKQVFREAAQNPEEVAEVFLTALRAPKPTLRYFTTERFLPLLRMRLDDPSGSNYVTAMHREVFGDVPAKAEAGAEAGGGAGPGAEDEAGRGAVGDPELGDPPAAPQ
The experiment can be described thus: Inhibition of human cytosolic 17beta-HSD1 using [2,4,6,7-3H]E1 as substrate at 1 uM after 10 mins by radioflow detector. The gist of the method:
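Cytosolic fraction from human placenta incubated with NADH (500 µM), test compound and unlabeled plus [2,4,6,7-3H]-E1 (final 500 nM) for 10 min at 37 °C. Phosphate buffer 50 mM with 20% glycerol and 1 mM EDTA. Inhibitor stocks made in DMSO. Reaction stopped with HgCl2 and extracted with ether. Substrate and product separated by HPLC with radioflow detection. Values are the mean of three determinations.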

For orientation: inhibition means the percentage by which the read-out fell short of the control. The low end stands for little suppression, the high end for strong suppression. For the compound `Cc1cc(-c2ccc(C(=O)c3cccc(O)c3)s2)ccc1O`, the results for the inhibition in experiment [1] and in experiment [2] were 75% and 94%, respectively.
